Measured values: patent US20030032203A1, “Small molecule microarrays” (published 2003)

Test system: A549 human lung carcinoma cells
Test: cell death assay on methacrylate geldisk small molecule array, phase-contrast microscopy

O=[As]c1ccccc1 (stereo not drawn)
gel-like disk concentration harboring rounded cells (characteristic of dying cells) (18 hours at 37° C., phase-contrast microscope): greater than 0.55 mM | state of cancer cells on geldisk (FIG. 3) (geldisk containing a toxic small molecule): dead cancer cells | IC50 (read-out: concentration of phenylarsine oxide causing a 50% loss of cell viability, concentration in gel-like disk, 18 hours at 37° C., counting number and extent of rounded cells on each spot): 1 mM
